Results on 2 compounds are retold here after patent US6498163B1, “Pyrido[2,3-D]pyrimidines and 4-aminopyrimidines as inhibitors of cellular proliferation” (Warner-Lambert Company, priority 1997, dated 2002).

Experiment [1] deals with cdk2/cyclinA (Homo sapiens, UniProt P24941). Kind of experiment: Cyclin-dependent kinase assay cdk2/cyclinA. Conditions: Table 1. The experiment is classed as biochemical.
Experiment [2] has as its target cdk2/cyclinE (Homo sapiens, UniProt P24941). The experiment can be described thus: Cyclin-dependent kinase assay cdk2/cyclinE. The experiment is classed as biochemical. The following applies: Table 1; read-out: cdk2/E IC50.

Structures are written as SMILES.

As for `O=c1ccc2cnc(Nc3ccccc3)nc2n1CCCOCc1ccccc1` [Example 38, 8-(3-Benzyloxypropyl)-2-phenylamino-8H-pyrido[2,3-d]pyrimidin-7-one], the IC50 in experiment [1] turned out to be 13500 nM; in experiment [2], 1750 nM.
For the compound `CN(C)c1ccc(Nc2ncc3ccc(=O)n(C4CCCCC4)c3n2)cc1` [Example 147, 8-Cyclohexyl-2-(4-dimethylamino-phenylamino)-8H-pyrido[2,3-d]pyrimidin-7-one], the IC50 in experiment [1] came to 12 nM; in experiment [2], 81 nM.
